Read-outs that look alike come from different tables or passages of the source.
How the values were obtained:
NIH 3T3 cells [1] = conditions: lactose-free
NIH 3T3 cells [2] = conditions: cited from earlier work

## CSCC[C@H](NC(=O)[C@H](CC(C)C)NC(=O)[C@H](Cc1c[nH]c2ccccc12)NC(=O)[C@H](CCC(N)=O)NC(=O)[C@@H](NC(=O)[C@H](Cc1ccccc1)NC(=O)[C@H](CC(=O)O)NC(=O)[C@H](CCC(N)=O)NC(=O)[C@H](C)NC(=O)[C@H](CCCN=C(N)N)NC(=O)[C@H](CCCN=C(N)N)NC(=O)[C@H](CO)NC(=O)[C@H](CC(=O)O)NC(=O)[C@H](CC(C)C)NC(=O)[C@H](Cc1ccc(O)cc1)NC(=O)[C@H](CCCCN)NC(=O)[C@H](CO)NC(=O)[C@H](Cc1ccc(O)cc1)NC(=O)[C@H](CC(=O)O)NC(=O)[C@H](CO)NC(=O)[C@@H](NC(=O)[C@H](Cc1ccccc1)NC(=O)[C@@H](NC(=O)CNC(=O)[C@H](CCC(N)=O)NC(=O)[C@H](CO)NC(=O)[C@@H](N)Cc1c[nH]cn1)[C@@H](C)O)[C@@H](C)O)C(C)C)C(=O)N[C@@H](CC(N)=O)C(=O)N[C@H](C(=O)O)[C@@H](C)O [native glucagon, glucagon]
NIH 3T3 cells [1]; aged 5 days, Tris pH 8.5
  cytotoxicity: mild to moderate cytotoxicity
NIH 3T3 cells [1]; aged 5 days, Tris pH 8.5, listed as lactose-free glucagon
  cytotoxicity: some evidence of toxicity
NIH 3T3 cells [1]; no aging, any concentration, pH 8.5 or 10
  cytotoxicity: no significant cytotoxicity
NIH 3T3 cells [2]; 5 mg/mL, no aging
  cytotoxicity (Onoue and colleagues): not cytotoxic
NIH 3T3 cells [2]; aged at 5 mg/mL, aging for only 1 day
  cytotoxicity (Onoue and colleagues): definite cytotoxicity

Reference: patent US8636711B2 (priority 2010, dated 2014)
